{"sequences": {"note": "Chains of the proteins cited; added tags and fusions are not shown. Residues count along the entry.", "UniProt Q06187, 2-659": "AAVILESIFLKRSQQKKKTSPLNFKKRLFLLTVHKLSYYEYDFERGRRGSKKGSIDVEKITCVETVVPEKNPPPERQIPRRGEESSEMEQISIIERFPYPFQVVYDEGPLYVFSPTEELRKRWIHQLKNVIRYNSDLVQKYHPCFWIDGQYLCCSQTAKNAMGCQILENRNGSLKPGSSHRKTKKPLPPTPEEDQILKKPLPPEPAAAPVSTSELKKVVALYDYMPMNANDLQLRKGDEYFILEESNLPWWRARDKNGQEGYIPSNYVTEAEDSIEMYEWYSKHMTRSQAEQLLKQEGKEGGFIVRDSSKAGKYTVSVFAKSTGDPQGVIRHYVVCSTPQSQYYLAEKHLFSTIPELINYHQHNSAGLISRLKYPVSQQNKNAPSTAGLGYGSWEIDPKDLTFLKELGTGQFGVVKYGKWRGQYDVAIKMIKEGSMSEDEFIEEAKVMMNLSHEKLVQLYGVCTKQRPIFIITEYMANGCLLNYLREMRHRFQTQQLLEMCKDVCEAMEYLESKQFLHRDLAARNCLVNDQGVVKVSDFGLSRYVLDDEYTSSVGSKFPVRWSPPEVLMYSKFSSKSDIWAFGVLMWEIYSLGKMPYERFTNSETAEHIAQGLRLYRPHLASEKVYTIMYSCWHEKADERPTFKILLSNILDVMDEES"}, "source": "paper PMC12484723", "about": "“COOKIE-Pro: covalent inhibitor binding kinetics profiling on the proteome scale” (Nature Communications, 2025)", "target": "Bruton's Tyrosine Kinase (BTK) (Homo sapiens, UniProt Q06187)", "experiment": "COOKIE-Pro competition chemoproteomics in permeabilized Ramos cells (kinact/KI)", "assay_type": "cell-based", "data": [{"smiles": "C=CC(=O)Nc1cccc(Nc2nc(Nc3ccc(OCCOC)cc3)ncc2F)c1", "note": "[spebrutinib]", "values": [{"measurement": "kinact/KI", "result": 91500, "unit": "M⁻¹ s⁻¹"}]}]}
